“Also recorded” adds a separate entry of the source.
Legend:
[1] = target: T1, rASIC3 (Rattus norvegicus, UniProt O35240); assay: TEVC on Xenopus oocytes expressing rASIC3; assay type: cell-based
T1 construct: expressed in transfected cells; host or cells: Xenopus laevis oocytes injected with cRNA
T1 sequence (O35240 1-533): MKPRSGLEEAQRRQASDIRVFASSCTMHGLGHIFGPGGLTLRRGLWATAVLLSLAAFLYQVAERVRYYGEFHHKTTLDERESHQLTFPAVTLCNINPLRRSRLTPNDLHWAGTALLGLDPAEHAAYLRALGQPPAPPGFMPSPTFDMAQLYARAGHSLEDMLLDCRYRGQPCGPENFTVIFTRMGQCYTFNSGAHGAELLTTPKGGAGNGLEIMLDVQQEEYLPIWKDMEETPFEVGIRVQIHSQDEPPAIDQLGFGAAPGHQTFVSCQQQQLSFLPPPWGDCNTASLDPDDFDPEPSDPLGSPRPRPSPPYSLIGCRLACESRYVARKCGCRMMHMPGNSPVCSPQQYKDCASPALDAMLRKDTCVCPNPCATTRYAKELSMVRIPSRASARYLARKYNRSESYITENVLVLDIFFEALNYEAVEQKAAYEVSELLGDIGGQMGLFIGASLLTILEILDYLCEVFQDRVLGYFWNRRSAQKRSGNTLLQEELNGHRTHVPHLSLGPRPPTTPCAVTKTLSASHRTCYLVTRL
Protocol: The ability of the peptides of the invention to modulate ASIC currents was assessed using two-electrode voltage clamp (TEVC) electrophysiology experiments performed on Xenopus laevis oocytes expressing homomeric ASIC channels. Xenopus oocytes are widely used as an expression system for functional characterisation of ion channel modulators. TEVC allows measurement of whole-cell ion channel currents while controlling the membrane potential.
Oocytes were harvested from anaesthetised female X. laevis then defolliculated by treatment with collagenase (Sigma, type I). Oocytes were injected with in vitro transcribed ASIC cRNA (capped RNA). Oocytes were kept at 17-18° C. in ND96 solution containing 96 mM NaCl, 2 mM KCl, 1.8 mM CaCl2, 2 mM MgCl2, 5 mM HEPES, 5 mM pyruvic acid, 50 μg/ml gentamicin (pH 7.4), and fetal horse serum (2.5%), and experiments were performed at room temperature (21-22° C.) 1-3 days after cRNA injection. Oocytes were clamped at −60 mV (Warner OC-725C oocyte clamp; Warner Instruments, CT, USA) using two standard glass microelectrodes of 0.5-2 MΩ resistance when filled with 3 M KCl. Data acquisition and analysis were performed using pCLAMP software, Version 10 (Axon Instruments, CA, USA). Currents were elicited by a drop in pH from 7.45 to 6.0 using a microperfusion system to allow rapid solution exchange. […]

[2] = system: spontaneously hypertensive rats (SHR); assay: Focal reperfusion (endothelin-1) stroke model in conscious SHR, intranasal administration; assay type: in vivo, rat; conditions: 2 μg/kg i.n. four hours after stroke
Protocol: The neuroprotective efficacy of Hi1a was assessed in a rat model of focal cerebral ischemia. In vivo experiments were conducted using a focal reperfusion model of stroke in conscious spontaneously hypertensive rats (SHR) as previously reported (McCarthy et al., Neuropharmacology 99, 650-657, 2015). Two 23-gauge stainless steel guide cannulae were stereotaxically implanted into anaesthetised animals (ketamine 75 mg/kg; xylazine 10 mg/kg; intraperitoneal) 5 days prior to stroke induction. The first cannula was implanted 3 mm dorsal to the right middle cerebral artery for stroke induction. The second cannula was implanted into the left lateral ventricle for drug administration.
After 5 days recovery, stroke was induced in conscious rats by inserting a 30-gauge injector protruding 3 mm below the previously implanted cannula. […] Only animals that achieved a level 4 stroke were included in the study. Typical behaviours associated with a level 4 stroke include continuous ipsilateral circling, clenching, dragging, failure to extend the left contralateral forelimb, chewing, jaw flexing, and shuffling with forepaws.
Compared to models of middle cerebral artery occlusion (MCAO) achieved by surgical exposure of the artery, this model has the advantage of minimal surgical intervention in the brain, and the stroke is induced in the absence of anaesthetics, which can confound the results of drug studies (Callaway et al., 1999; Sharkey et al., 1993). Stroke-induced motor deficit was assessed by counting the number of foot faults made while rats traversed a gradually narrowing ledged beam (McCarthy et al., Stroke 40, 1482-1489, 2009). […] For the neurological score, postural abnormalities were assessed by elevating the rat by the tail above a flat surface and grading the severity of thorax twisting and the angle of forelimb extension. Both indicators of neurological health are scored between 0 and 3, with a score of 0 corresponding to no twisting of the thorax or complete forelimb extension towards the flat surface. […]
At 72 h post-stroke, rats were re-anaesthetised (ketamine 75 mg/kg; xylazine 10 mg/kg; intraperitoneal) and transcardially perfused with physiologically buffered saline. Brains were removed, snap frozen and sectioned (16 μm) at eight pre-determined forebrain levels (−3.20 mm to 6.8 mm) relative to bregma. Sections were imaged, and infarct volumes were measured using the ballistic light method and corrected for edema (McCarthy et al., Stroke 40, 1482-1489, 2009).
Four hours after stroke induction, SHR were treated with a single intranasal (i.n.) dose of Hi1a (2 μg/kg) or vehicle (saline). […] Motor-coordination (ledged beam test) and stroke-related postural abnormalities (neurological test) were evaluated at 24 and 72 hours post-stroke. […]

Question: Which results are given for `CC[C@H](C)[C@@H]1NC(=O)[C@@H](NC(=O)[C@H](CCC(=O)O)NC(=O)[C@H](CC(N)=O)NC(=O)[C@@H](N)CO)CSSC[C@@H]2NC(=O)[C@@H]3CSSC[C@@H](C(=O)N[C@H](C(=O)N4CCC[C@H]4C(=O)N[C@H](C(=O)N4CCC[C@H]4C(=O)NCC(=O)N[C@@H](Cc4ccccc4)C(=O)N[C@H]4CSSC[C@@H]5NC(=O)[C@@H]6CSSC[C@@H](C(=O)N[C@@H](C)C(=O)N7CCC[C@H]7C(=O)N[C@H](C(=O)N[C@H](C(=O)O)[C@@H](C)O)[C@@H](C)CC)NC(=O)[C@H](C(C)C)NC(=O)[C@H](CO)NC(=O)[C@H](CO)NC(=O)[C@H](CCCCN)NC(=O)[C@H](CC(N)=O)NC(=O)CNC(=O)[C@H](CO)NC(=O)[C@H](CCCNC(=N)N)NC(=O)[C@H](CCCCN)NC(=O)[C@H](Cc7c[nH]c8ccccc78)NC(=O)[C@H](CSSC[C@H](NC(=O)[C@H](CCC(N)=O)NC(=O)[C@H](CCCCN)NC(=O)[C@H](Cc7c[nH]c8ccccc78)NC(=O)[C@H](CCCCN)NC(=O)[C@H](C(C)C)NC(=O)[C@H](CC(C)C)NC4=O)C(=O)N[C@@H](CC(=O)O)C(=O)NCC(=O)N[C@@H](CCCNC(=N)N)C(=O)N[C@@H](CCC(=O)O)C(=O)N[C@@H](CCCNC(=N)N)C(=O)N[C@@H](CC(=O)O)C(=O)N6)NC(=O)[C@H](CCC(=O)O)NC(=O)[C@H](CC(C)C)NC(=O)CNC(=O)[C@H](C)NC5=O)[C@@H](C)CC)C(C)C)NC(=O)[C@H](C(C)C)NC(=O)[C@H](CCC(=O)O)NC(=O)[C@H](Cc4ccccc4)NC(=O)[C@H](CO)NC(=O)[C@H](Cc4c[nH]cn4)NC(=O)[C@H](CCCNC(=N)N)NC(=O)[C@H](CCCNC(=N)N)NC(=O)[C@H](CCCCN)NC(=O)[C@H](Cc4ccc(O)cc4)NC(=O)[C@H](CSSC[C@H](NC(=O)[C@H](CO)NC(=O)[C@H](CC(C)C)NC(=O)[C@H](Cc4c[nH]c5ccccc45)NC(=O)[C@H](CCCCN)NC(=O)[C@H](CCCNC(=N)N)NC1=O)C(=O)N[C@@H](C(C)C)C(=O)N[C@@H](CC(=O)O)C(=O)N[C@@H](CCCNC(=N)N)C(=O)N[C@@H](CCCCN)C(=O)N[C@@H](CC(N)=O)C(=O)N[C@@H](CC(=O)O)C(=O)N3)NC(=O)[C@H](CCC(=O)O)NC(=O)[C@H](CC(C)C)NC(=O)CNC(=O)[C@H](CCC(=O)O)NC2=O` [Hi1a]?
Answer: Effect on rASIC3 current ([1]; 30 nM at pH 7.45): minimal effect; Effect on rASIC3 current ([1]; 1 μM at pH 7.45): no effect; Motor impairment (ledged beam assay) [2]: less motor impairment; also recorded: reduces sensorimotor deficits; Neurological deficit (neurological score) [2]: reduced neurological deficit; also recorded: improves overall neurological score; Weight loss after stroke [2]: less weight loss; also recorded: minimises weight loss; Infarct size in cortical and striatal regions ([2]; 72 h post-stroke): dramatically reduced; also recorded: reduces infarct size
